Results taken from US9161922B2, “Amine oxidase inhibitors” (Case Western Reserve University, priority 2005, dated 2015).

The chains behind the UniProt entries cited, without tags or fusion partners. Residues count along the entry.
UniProt Q29437, 17-762 limits assumed: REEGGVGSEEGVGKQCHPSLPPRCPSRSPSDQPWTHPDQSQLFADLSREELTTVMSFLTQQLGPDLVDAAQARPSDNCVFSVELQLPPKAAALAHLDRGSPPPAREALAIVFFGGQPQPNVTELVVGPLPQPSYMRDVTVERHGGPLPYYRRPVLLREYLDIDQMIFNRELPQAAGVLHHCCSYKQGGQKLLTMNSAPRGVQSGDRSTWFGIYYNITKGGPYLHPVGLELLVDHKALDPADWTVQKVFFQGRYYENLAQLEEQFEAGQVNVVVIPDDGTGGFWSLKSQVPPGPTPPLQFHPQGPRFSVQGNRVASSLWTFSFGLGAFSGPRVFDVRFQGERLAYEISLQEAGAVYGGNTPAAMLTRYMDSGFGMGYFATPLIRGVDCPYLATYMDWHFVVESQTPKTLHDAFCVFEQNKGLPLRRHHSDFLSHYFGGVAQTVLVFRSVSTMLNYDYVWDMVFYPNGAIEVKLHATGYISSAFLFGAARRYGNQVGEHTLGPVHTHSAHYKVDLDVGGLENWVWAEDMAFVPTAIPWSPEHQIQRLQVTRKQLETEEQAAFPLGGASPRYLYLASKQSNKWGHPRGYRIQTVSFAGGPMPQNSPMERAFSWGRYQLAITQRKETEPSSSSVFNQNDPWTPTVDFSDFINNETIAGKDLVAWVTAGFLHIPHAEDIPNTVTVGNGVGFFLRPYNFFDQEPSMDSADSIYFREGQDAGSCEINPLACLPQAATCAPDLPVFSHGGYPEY

target: bovine plasma amine oxidase (BPAO) (Bos taurus (Bovine), UniProt Q29437); assay: Inactivation of bovine plasma amine oxidase (benzylamine oxidation rate, absorbance at 250 nm); assay type: biochemical; settings: inactivation of BPAO, Table 1

SMILES	partition ratio
NC/C=C\Cl	6

same assay, conditions: read-out: 5 min IC50 for BPAO; 5 min, Table 4

SMILES	pIC50
CCC=C=CCN	6.30
C=C=CCN	6.30
NCC=C=Cc1ccccc1 (single isomer, unassigned) [Ph (R isomer)]	5.92
NCC=C=Cc1ccccc1 (single isomer, unassigned) [Ph (S isomer)]	5.96
NCC=C=CCCc1ccccc1	6.30

pIC50: −log10 of the molar value.
